Measurements taken from paper PMC12309361 (Nucleic Acids Research, 2025).
Like-named read-outs stand apart in the source and are kept apart here.

System: B. subtilis cells

With “Janelia Fluor X 554 (JFX554) HaloTag ligand” the “Fold-change in CFUs/mL, labeled” value (Halo-DnaE DnaX-mYPet strain, 1 nM JFX554, after 1 h incubation, mean ± standard deviation (mock-labeled 2.6 ± 0.5)) was 2.7 ± 0.7 and the “Fold-change in CFUs/mL, labeled” value (PolC-Halo DnaX-mYPet strain, 500 pM JFX554, after 1 h incubation, mean ± standard deviation (mock-labeled 2.1 ± 0.2)) was 2.3 ± 0.5.
